Experimental data from US9694016B2 (Novartis AG, priority 2013, dated 2017).

By UniProt entry, the sequences of proteins in these tests, tags left out.
UniProt P04049, whole entry Y340E/Y341E: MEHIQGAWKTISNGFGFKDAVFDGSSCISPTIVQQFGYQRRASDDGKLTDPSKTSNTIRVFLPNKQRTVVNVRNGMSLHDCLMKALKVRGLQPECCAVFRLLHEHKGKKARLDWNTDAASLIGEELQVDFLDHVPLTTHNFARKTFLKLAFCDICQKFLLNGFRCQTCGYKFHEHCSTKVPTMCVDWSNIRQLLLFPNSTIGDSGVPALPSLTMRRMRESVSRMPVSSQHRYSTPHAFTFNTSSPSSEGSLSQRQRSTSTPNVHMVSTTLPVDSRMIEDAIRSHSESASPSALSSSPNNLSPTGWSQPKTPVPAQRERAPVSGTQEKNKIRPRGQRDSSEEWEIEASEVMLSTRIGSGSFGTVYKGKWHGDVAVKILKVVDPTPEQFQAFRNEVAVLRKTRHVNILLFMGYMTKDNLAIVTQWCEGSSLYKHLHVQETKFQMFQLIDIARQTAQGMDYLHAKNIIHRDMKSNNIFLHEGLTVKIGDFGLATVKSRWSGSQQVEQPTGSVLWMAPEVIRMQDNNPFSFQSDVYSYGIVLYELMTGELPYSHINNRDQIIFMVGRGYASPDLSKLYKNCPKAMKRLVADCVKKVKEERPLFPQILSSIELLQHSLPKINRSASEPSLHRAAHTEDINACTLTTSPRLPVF

Target: C-Raf FL (full-length C-Raf protein, Y340E and Y341E activating mutations) (Homo sapiens (Human), UniProt P04049, Y340E/Y341E)
Format: biochemical
Conditions: AlphaScreen, 60 min pre-incubation, 1 hour reaction; read-out: c-Raf FL IC-50

Structure (SMILES)	IC50
Cc1ccc(NC(=O)c2cccc(-c3nnco3)c2)cc1-c1cc(N2CCOCC2)c(=O)n(C)n1 [Example 639, N-(4-methyl-3-(1-methyl-5-morpholino-6-oxo-1,6-dihydropyridazin-3-yl)phenyl)-3-(1,3,4-oxadiazol-2-yl)benzamide]	1.4 nM
CCn1cc(C(=O)Nc2ccc(C)c(-c3cc(N4CCOCC4)c(=O)n(C)n3)c2)cc(C(F)(F)F)c1=O [Example 641, 1-ethyl-N-(4-methyl-3-(1-methyl-5-morpholino-6-oxo-1,6-dihydropyridazin-3-yl)phenyl)-6-oxo-5-(trifluoromethyl)-1,6-dihydropyridine-3-carboxamide]	0.7 nM
Cc1ccc(NC(=O)c2cnnc(C(F)(F)F)c2)cc1-c1cc(N2CCOCC2)c(=O)n(C)n1 [Example 647, N-(4-methyl-3-(1-methyl-5-morpholino-6-oxo-1,6-dihydropyridazin-3-yl)phenyl)-6-(trifluoromethyl)pyridazine-4-carboxamide]	1.5 nM
CCN1CCN(c2cc(C(=O)Nc3ccc(C)c(-c4cc(N5CCOCC5)c(=O)n(C)n4)c3)cc(C(F)(F)F)c2)CC1 [Example 649, 3-(4-ethylpiperazin-1-yl)-N-(4-methyl-3-(1-methyl-5-morpholino-6-oxo-1,6-dihydropyridazin-3-yl)phenyl)-5-(trifluoromethyl)benzamide]	1.2 nM
Cc1ccc(NC(=O)c2cc(CN(C)C)cc(C(F)(F)F)c2)cc1-c1cc(N2CCOCC2)c(=O)n(C)n1 [Example 661, 3-((dimethylamino)methyl)-N-(4-methyl-3-(1-methyl-5-morpholino-6-oxo-1,6-dihydropyridazin-3-yl)phenyl)-5-(trifluoromethyl)benzamide]	0.9 nM
Cc1ccc(NC(=O)c2ccnc(C(C)(C)F)c2)cc1-c1cc(N2CCOC[C@@H]2C)c(=O)n(C)n1 [Example 662, (S)-2-(2-fluoropropan-2-yl)-N-(4-methyl-3-(1-methyl-5-(3-methylmorpholino)-6-oxo-1,6-dihydropyridazin-3-yl)phenyl)isonicotinamide]	1.3 nM
Cc1ccc(NC(=O)c2ccnc(C(C)(C)C#N)c2)cc1-c1cc(N2CCOC[C@@H]2C)c(=O)n(C)n1 [Example 663, (S)-2-(2-cyanopropan-2-yl)-N-(4-methyl-3-(1-methyl-5-(3-methylmorpholino)-6-oxo-1,6-dihydropyridazin-3-yl)phenyl)isonicotinamide]	2.1 nM
Cc1ccc(NC(=O)c2ccnc(C(C)(F)F)c2)cc1-c1cc(N2CCOC[C@@H]2C)c(=O)n(C)n1 [Example 664, (S)-2-(1,1-difluoroethyl)-N-(4-methyl-3-(1-methyl-5-(3-methylmorpholino)-6-oxo-1,6-dihydropyridazin-3-yl)phenyl)isonicotinamide]	0.6 nM
Cc1ccc(NC(=O)c2ccnc(C(C)(C)F)c2)cc1-c1cc(N2CCOC(C)(C)C2)c(=O)n(C)n1 [Example 665, N-(3-(5-(2,2-dimethylmorpholino)-1-methyl-6-oxo-1,6-dihydropyridazin-3-yl)-4-methylphenyl)-2-(2-fluoropropan-2-yl)isonicotinamide]	2.1 nM
Cc1ccc(NC(=O)c2ccnc(C(C)(C)C#N)c2)cc1-c1cc(N2CCOC(C)(C)C2)c(=O)n(C)n1 [Example 666, 2-(2-cyanopropan-2-yl)-N-(3-(5-(2,2-dimethylmorpholino)-1-methyl-6-oxo-1,6-dihydropyridazin-3-yl)-4-methylphenyl)isonicotinamide]	2.4 nM
Cc1ccc(NC(=O)c2ccnc(C(C)(F)F)c2)cc1-c1cc(N2CCOC(C)(C)C2)c(=O)n(C)n1 [Example 667, 2-(1,1-difluoroethyl)-N-(3-(5-(2,2-dimethylmorpholino)-1-methyl-6-oxo-1,6-dihydropyridazin-3-yl)-4-methylphenyl)isonicotinamide]	1.1 nM
Cc1ccc(NC(=O)c2ccnc(C(C)(C)C#N)c2)cc1-c1cc(N2C3CCC2COC3)c(=O)n(C)n1 [Example 669, N-(3-(5-(3-oxa-8-azabicyclo[3.2.1]octan-8-yl)-1-methyl-6-oxo-1,6-dihydropyridazin-3-yl)-4-methylphenyl)-2-(2-cyanopropan-2-yl)isonicotinamide]	2.5 nM
Cc1ccc(NC(=O)c2ccnc(C(C)(C)C#N)c2)cc1-c1cc(N2CCOCC2(C)C)c(=O)n(C)n1 [Example 671, 2-(2-cyanopropan-2-yl)-N-(3-(5-(3,3-dimethylmorpholino)-1-methyl-6-oxo-1,6-dihydropyridazin-3-yl)-4-methylphenyl)isonicotinamide]	6.8 nM
Cc1ccc(NC(=O)c2ccnc(C(C)(C)C#N)c2)cc1-c1cc(N2CCOC[C@H]2C)c(=O)n(C)n1 [Example 672, (R)-2-(2-cyanopropan-2-yl)-N-(4-methyl-3-(1-methyl-5-(3-methylmorpholino)-6-oxo-1,6-dihydropyridazin-3-yl)phenyl)isonicotinamide]	3.5 nM
Cc1ccc(NC(=O)c2ccnc(C(C)(C)F)c2)cc1-c1cc(N2CCOC[C@H]2C)c(=O)n(C)n1 [Example 673, (R)-2-(2-fluoropropan-2-yl)-N-(4-methyl-3-(1-methyl-5-(3-methylmorpholino)-6-oxo-1,6-dihydropyridazin-3-yl)phenyl)isonicotinamide]	2.7 nM
Cc1ccc(NC(=O)c2ccnc(C(C)(F)F)c2)cc1-c1cc(N2CCOC[C@H]2C)c(=O)n(C)n1 [Example 674, (R)-2-(1,1-difluoroethyl)-N-(4-methyl-3-(1-methyl-5-(3-methylmorpholino)-6-oxo-1,6-dihydropyridazin-3-yl)phenyl)isonicotinamide]	1 nM
Cc1ccc(NC(=O)c2ccnc(C(C)(C)C#N)c2)cc1-c1cc(C2CCOCC2)c(=O)n(C)n1 [Example 675, 2-(2-cyanopropan-2-yl)-N-(4-methyl-3-(1-methyl-6-oxo-5-(tetrahydro-2H-pyran-4-yl)-1,6-dihydropyridazin-3-yl)phenyl)isonicotinamide]	1.4 nM

Now from value to compound:

IC50	Structure (SMILES)
2.1 nM	Cc1ccc(NC(=O)c2ccnc(C(C)(C)O)c2)cc1-c1cc(N2CCOCC2)c(=O)n(C)n1 [Example 638, 2-(2-hydroxypropan-2-yl)-N-(4-methyl-3-(1-methyl-5-morpholino-6-oxo-1,6-dihydropyridazin-3-yl)phenyl)isonicotinamide]
1.1 nM	Cc1ccc(NC(=O)c2ccnc(C(C)(C)C#N)c2)cc1-c1cc(N2CCOCC2)c(=O)n(C)n1 [Example 640, 2-(2-cyanopropan-2-yl)-N-(4-methyl-3-(1-methyl-5-morpholino-6-oxo-1,6-dihydropyridazin-3-yl)phenyl)isonicotinamide]
0.4 nM	CCc1cc(C(=O)Nc2ccc(C)c(-c3cc(N4CCOCC4)c(=O)n(C)n3)c2)ccn1 [Example 642, 2-ethyl-N-(4-methyl-3-(1-methyl-5-morpholino-6-oxo-1,6-dihydropyridazin-3-yl)phenyl)isonicotinamide]
0.3 nM	CCC(F)(F)c1cc(C(=O)Nc2ccc(C)c(-c3cc(N4CCOCC4)c(=O)n(C)n3)c2)ccn1 [Example 643, 2-(1,1-difluoropropyl)-N-(4-methyl-3-(1-methyl-5-morpholino-6-oxo-1,6-dihydropyridazin-3-yl)phenyl)isonicotinamide]
0.9 nM	Cc1ccc(NC(=O)c2cnnc(C3CC3)c2)cc1-c1cc(N2CCOCC2)c(=O)n(C)n1 [Example 644, 6-cyclopropyl-N-(4-methyl-3-(1-methyl-5-morpholino-6-oxo-1,6-dihydropyridazin-3-yl)-phenyl)pyridazine-4-carboxamide]
3.1 nM	Cc1ccc(NC(=O)c2cnnc(C(C)(C)C#N)c2)cc1-c1cc(N2CCOCC2)c(=O)n(C)n1 [Example 646, 6-(2-cyanopropan-2-yl)-N-(4-methyl-3-(1-methyl-5-morpholino-6-oxo-1,6-dihydropyridazin-3-yl)phenyl)pyridazine-4-carboxamide]
1.2 nM	Cc1ccc(NC(=O)c2ccnc(C3COC3)c2)cc1-c1cc(N2CCOCC2)c(=O)n(C)n1 [Example 648, N-(4-methyl-3-(1-methyl-5-morpholino-6-oxo-1,6-dihydropyridazin-3-yl)phenyl)-2-(oxetan-3-yl)isonicotinamide]
0.5 nM	Cc1ccc(NC(=O)c2cccc(CC#N)c2)cc1-c1cc(N2CCOCC2)c(=O)n(C)n1 [Example 652, 3-(cyanomethyl)-N-(4-methyl-3-(1-methyl-5-morpholino-6-oxo-1,6-dihydropyridazin-3-yl)phenyl)benzamide]
0.3 nM	Cc1ccc(NC(=O)c2cccc(C(F)F)c2)cc1-c1cc(N2CCOCC2)c(=O)n(C)n1 [Example 655, 3-(difluoromethyl)-N-(4-methyl-3-(1-methyl-5-morpholino-6-oxo-1,6-dihydropyridazin-3-yl)phenyl)benzamide]
0.3 nM	Cc1ccc(NC(=O)c2ccnc(C(C)(F)F)c2)cc1-c1cc(N2CCOCC2)c(=O)n(C)n1 [Example 657, 2-(1,1-difluoroethyl)-N-(4-methyl-3-(1-methyl-5-morpholino-6-oxo-1,6-dihydropyridazin-3-yl)phenyl)isonicotinamide]
0.1 nM	Cc1ccc(NC(=O)c2ccnc(C3(C#N)CC3)c2)cc1-c1cc(N2CCOCC2)c(=O)n(C)n1 [Example 659, 2-(1-cyanocyclopropyl)-N-(4-methyl-3-(1-methyl-5-morpholino-6-oxo-1,6-dihydropyridazin-3-yl)phenyl)isonicotinamide]

Same assay, conditions: read-out: c-Raf FL IC-50

Structure (SMILES)	IC50
Cc1ccc(NC(=O)c2ccnc(C(C)(C)F)c2)cc1-c1cc(N2C3CCC2COC3)c(=O)n(C)n1 [Example 668, N-(3-(5-(3-oxa-8-azabicyclo[3.2.1]octan-8-yl)-1-methyl-6-oxo-1,6-dihydropyridazin-3-yl)-4-methylphenyl)-2-(2-fluoropropan-2-yl)isonicotinamide]	1.2 nM
Cc1ccc(NC(=O)c2ccnc(C(C)(F)F)c2)cc1-c1cc(N2C3CCC2COC3)c(=O)n(C)n1 [Example 670, N-(3-(5-(3-oxa-8-azabicyclo[3.2.1]octan-8-yl)-1-methyl-6-oxo-1,6-dihydropyridazin-3-yl)-4-methylphenyl)-2-(1,1-difluoroethyl)isonicotinamide]	0.9 nM
